Biological target: Lsa45 (Leptospiral surface adhesin of 45 kDa) (Leptospira interrogans, UniProt Q72UC8)
Settings: PBS, 37 °C, 0.6 mg/mL enzyme

## O=C(Cc1cccs1)N[C@@H]1C(=O)N2C(C(=O)O)=C(/C=C/c3ccc([N+](=O)[O-])cc3[N+](=O)[O-])CS[C@H]12 [nitrocefin]
  Km: 235 ± 6.4 µM

Reference: PMC9836055 (Process biochemistry (Barking, London, England), 2022)
